Assay results taken from PMC5464333, “The binding orientations of structurally-related ligands can differ; A cautionary note” (Neuropharmacology, 2017).

By UniProt entry, the sequences of proteins in these tests, tags left out. Where a name states a change or a piece, a line headed by the entry shows the natural chain unless it says otherwise. Chains listed by the source or under a name are the forms on record and can include a tag or linker.
UniProt P22770: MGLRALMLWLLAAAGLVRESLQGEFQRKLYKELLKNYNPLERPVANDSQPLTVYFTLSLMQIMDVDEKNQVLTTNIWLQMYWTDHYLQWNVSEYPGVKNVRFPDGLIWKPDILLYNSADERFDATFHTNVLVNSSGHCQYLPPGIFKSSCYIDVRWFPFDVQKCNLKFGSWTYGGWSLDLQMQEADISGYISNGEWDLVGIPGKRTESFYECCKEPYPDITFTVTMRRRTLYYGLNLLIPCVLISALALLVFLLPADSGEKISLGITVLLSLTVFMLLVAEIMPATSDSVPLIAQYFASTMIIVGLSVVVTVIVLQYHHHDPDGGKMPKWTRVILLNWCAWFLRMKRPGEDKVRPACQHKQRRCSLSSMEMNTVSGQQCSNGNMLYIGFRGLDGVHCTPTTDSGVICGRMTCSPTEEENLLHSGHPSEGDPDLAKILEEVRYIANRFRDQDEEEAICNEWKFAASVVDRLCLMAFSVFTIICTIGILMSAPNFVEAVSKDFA
α7 nACh receptor (UniProt P22770+P23979, M226I/T225I), UniProt P22770+P23979, fused P22770:T225I/P22770:M226I: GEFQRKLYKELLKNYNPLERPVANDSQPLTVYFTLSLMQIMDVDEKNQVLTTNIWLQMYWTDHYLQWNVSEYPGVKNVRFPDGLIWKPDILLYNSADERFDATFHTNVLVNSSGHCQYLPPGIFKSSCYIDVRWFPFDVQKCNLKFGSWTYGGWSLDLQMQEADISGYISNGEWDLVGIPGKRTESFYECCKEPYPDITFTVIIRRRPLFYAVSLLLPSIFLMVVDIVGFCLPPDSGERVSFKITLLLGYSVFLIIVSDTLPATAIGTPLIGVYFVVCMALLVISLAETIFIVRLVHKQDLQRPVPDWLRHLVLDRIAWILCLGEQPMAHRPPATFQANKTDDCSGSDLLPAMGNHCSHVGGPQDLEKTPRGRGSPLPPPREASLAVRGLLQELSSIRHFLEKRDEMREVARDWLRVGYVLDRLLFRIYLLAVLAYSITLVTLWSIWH
UniProt P23979: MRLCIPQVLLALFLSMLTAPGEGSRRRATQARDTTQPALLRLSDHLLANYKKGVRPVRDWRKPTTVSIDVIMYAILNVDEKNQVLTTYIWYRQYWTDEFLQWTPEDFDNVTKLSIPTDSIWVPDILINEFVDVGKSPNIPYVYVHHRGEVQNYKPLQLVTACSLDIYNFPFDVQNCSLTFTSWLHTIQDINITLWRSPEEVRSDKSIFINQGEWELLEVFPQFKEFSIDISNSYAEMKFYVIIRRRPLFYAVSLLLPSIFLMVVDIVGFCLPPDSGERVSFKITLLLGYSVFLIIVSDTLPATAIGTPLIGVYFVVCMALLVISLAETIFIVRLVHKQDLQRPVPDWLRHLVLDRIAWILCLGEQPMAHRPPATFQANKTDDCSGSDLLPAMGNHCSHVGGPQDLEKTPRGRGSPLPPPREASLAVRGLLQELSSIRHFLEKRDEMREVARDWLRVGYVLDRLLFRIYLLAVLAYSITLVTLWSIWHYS

Target: α7 nACh receptor (UniProt P22770+P23979, M226I/T225I)
Test: Competition binding with [3H]epibatidine at α7 nACh receptors
Parameters: a chimaera of the chick α7 nACh extracellular domain fused to the 5-HT3 transmembrane/intracellular domains; expressed in transfected cells; host or cells: HEK293 cells, transient transfection (pcDNA3.1, PEI); species or system chick
Protocol: Human 5-HT3A subunit cDNA (Accession: P46098, kindly provided by J. […] Cells were transiently transfected with either of these cDNA constructs using polyethyleneimine (PEI: 25 kDa, linear, powder, Polysciences Inc., Eppelheim, Germany). 30 μl of PEI (1 mg ml^−1), 5 μg cDNA and 1 ml DMEM were incubated for 10 min at room temperature, added drop wise to a 90 mm plate of 70–80% conﬂuent HEK293 cells, and incubated for 2–3 days before use. […] Non-specific binding was determined with 30 μM (-)/-nicotine. Equilibrium reactions were incubated on ice for at least 1 h and bound radioligand measured using the same method as described above.

CN1C2CCCC1CC(NC(=O)c1nn(C)c3ccccc13)C2 (centres unmarked) [granisetron, Granisetron]
competition (competition with [3H]epibatidine, concentration of up to 100 μM): not detected
binding (concentrations of up to 30 μM): no detectable binding
